Experimental data reported in patent US6451853B1, “Small molecules that elicit a polarized Th1 response and for modulation of cellular immunity” (Dovetail Technologies, Inc, priority 1998, dated 2002).

Test system: TNF-R I on T cells (PBMCs)
Assay: TNF receptor I expression on T cells by FACS
Settings: stimulated T cells, 20 mM beta-alethine

NCCC(=O)NCCSSCCNC(=O)CCN [BT, beta-alethine]
share of T-cell population with elevated TNF-R I expression relative to PMA/ionomycin alone: over 50%
